Results as given in patent US20060167229A1, “Biologically active peptide conjugates” (priority 2002, published 2006).

Key:
Format in all cases: in vivo, BALB/c mice
S180 sarcoma = assay: Growth of transplanted S180 sarcoma; details: controls: IL-2, IFN-γ 3 × 10^5 IU/kg, cyclophosphamide 20 mg/kg
Procedure: Intraperitoneal injection, once per day. […] Treatment of all groups with testing substance lasted for 30 days or until the animal died unless otherwise specified.
Stock S180 sarcoma cells were incubated in DMEM/F12 medium supplemented with 10% fetal bovine serum, 37° C., 5% CO2 for 72 hrs, then washed 3-4 times with Hank's solution at room temperature. Adjust the cell concentration to 1-2×10^9 per litre with Hank's solution. […] The mice were killed by cervical vertebra dislocation. Vigorously growing and non-disrupted tumor masses were harvested and washed clean with sterile saline. The tissue was dispersed in saline to a homogenous cell suspension, in a ratio of 1 g tissue to 4 ml saline. The sarcoma bearing mice model was prepared with an injection of 0.2 ml cell suspension through the armpit. Administration of test substance treatment started as described in section Method 1.
2.2 The Tumor Growth Inhibition Index was Calculated According to the Following Formula: Tumor growth inhibition index=(mean tumor weight of control group−mean tumor weight of treatment group)÷mean tumor weight of control group 3.

thymus gland = assay: Immunity organ weight test, thymus gland index; details: healthy mice, saline 0.12 ± 0.02
Procedure: (§1) One day after the last test substance administration (day 16), the liver, spleen, and thymus gland were separated and blotted dry with filter paper and weighed. The phagocytosis index α was calculated as below: α=(^3√{square root over ( )}K)(W÷WLS)
Thymus gland index (%)=(thymus weight/body weight)×100%

T lymphocyte = T lymphocyte transformation in mice with ascitic fluid type liver cancer H22; details: controls: rhIL-2, rmIFN-γ 3 × 10^5 IU/kg, cyclophosphamide 20 mg/kg, saline 1.25 ± 0.07
Procedure: Healthy BALB/c mice were randomised into peptide group, rmIFN-γ group, rhIL-2 group, and saline group, 15 mice per group, and prepared into H22 carrying mice model as described in section Method 3. After implantation of the cancer cells, the test substances were administered for 15 days, the mice were killed by cervical dislocation. The spleen was isolated aseptically and manually dispersed in cold D-Hank's solution using an injection needle. The dispersed cell suspension was further sieved through a 100-gauge 150 μm diameter stainless steel sieve. After centrifugation at 200 g for 10 minutes, the supernatant was discarded. The cell pellet was re-suspended in 10 volume of Tris-NH4Cl buffer and then kept standing still for 10 minutes at room temperature. The suspended cells were collected by centrifugation at 150 g for 10 minutes. The cells were washed 2-4 times with cold D-Hank's solution by re-suspending and collecting by centrifugation with condition as described above. The washed cells were then diluted to the desired cell densities by RPMI-1640 culture medium, containing 10% fetal bovine serum. […]
50 μl/well MTT of 1 mg/ml in RPMI-1640 was added to the cell pellet and the cells re-suspended by shaking for 2 minutes. […] Use an ELISA reader to obtain OD570 nm of each well referenced at 630 nm. […]

NK cell = NK cell cytotoxicity activity test (spleen cells of treated mice against YAC-1 target cells, MTT); details: healthy mice
Procedure: The above substances were all dissolved in 0.5 ml saline and injected intraperitoneal (i.p.) for 15 continuous days, once per day.
Ten mice per group. The day after the last test substance administration, the mice were sacrificed by cervical dislocation. The spleen was isolated aseptically and manually dispersed in cold D-Hank's solution using an injection needle. The dispersed cell suspension was further sieved through a 100 gauge 150 μm diameter stainless steel sieve. After centrifugation at 200 g for 10 minutes, the supernatant was discarded. The cell pellet was re-suspended in 10 volume of Tris-NH4Cl buffer and then kept standing still for 10 minutes at room temperature. The suspended cells were collected by centrifugation at 150 g for 10 minutes. The cells were washed 2-4 times with cold D-Hank's solution by re-suspending and collecting by centrifugation with condition as described above. The washed cells were then diluted to the desired cell densities by RPMI-1640 culture medium, containing 10% fetal bovine serum.
Mice spleen cells were prepared to 4×10^6/ml as described in section 1.1 above. Target cells YAC-1 were brought to log phase and adjusted to 1×10^5/ml. Using a 96 wells cell culture plate, […] were added to the control well containing only the spleen cells; […] and 100 μl culture medium were added to the control well containing only target cells; 100 μl mouse spleen cells and 100 μl target cells were added to the NK activity assay well. Three parallel sets of the above were prepared per mouse.
Samples were centrifuged at 150 g for 10 minutes to collect the cells. The supernatant was discarded and 50 μl/well MTT of 1 mg/ml was added. The reaction-mixture was then shaken for 2 minutes, and incubated at 37° C., 5% CO2 for 4 hours. The supernatant was discarded after centrifugation at 150 g for 10 minutes. […] 40 mM HCl-2-propanol was added and shaken for 3 minutes. An ELISA reader was used to obtain OD570 nm of each well referenced at 630 nm.

spleen = assay: Immunity organ weight test, spleen index; details: healthy mice, saline 0.53 ± 0.05
Procedure: as §1
Spleen index (%)=(spleen weight/body weight)×100%

[1] = peptide 0.5 μg/kg/day i.p. 15 days (IFN-γ, IL-2 3×10^5 IU/kg/day)

## IL-2: recombinant human IL (rhIL)-2, Shanghai Huaxin Biotech Inc.; positive control
S180 sarcoma
  Tumor inhibition index (%): 46.2%
S180 sarcoma; saline 1.29 ± 0.50
  Tumor weight: 0.69 ± 0.37 g
Thymus gland; [1]
  weight of thymus gland (thymus gland index), X ± SD (%): 0.14 ± 0.04%
Thymus gland; peptide 5 μg/kg/day i.p. 15 days (IFN-γ, IL-2 3×10^5 IU/kg/day)
  weight of thymus gland (thymus gland index), X ± SD (%): 0.14 ± 0.04%
Thymus gland; peptide 50 μg/kg/day i.p. 15 days (IFN-γ, IL-2 3×10^5 IU/kg/day)
  weight of thymus gland (thymus gland index), X ± SD (%): 0.14 ± 0.04%
Thymus gland; peptide 500 μg/kg/day i.p. 15 days (IFN-γ, IL-2 3×10^5 IU/kg/day)
  weight of thymus gland (thymus gland index), X ± SD (%): 0.14 ± 0.03%
T lymphocyte
  Stimulation index: 1.46 ± 0.21
NK cell; peptide 0.5 μg/kg/day i.p. 15 days (IFN-γ, IL-2 3×10^5 IU/kg/day), saline 58 ± 7
  NK cell cytotoxic activity, X ± SD (%): 74 ± 10 %
NK cell; peptide 5 μg/kg/day i.p. 15 days (IFN-γ, IL-2 3×10^5 IU/kg/day), saline 60 ± 9
  NK cell cytotoxic activity, X ± SD (%): 80 ± 8 %
NK cell; peptide 50 μg/kg/day i.p. 15 days (IFN-γ, IL-2 3×10^5 IU/kg/day), saline 56 ± 8
  NK cell cytotoxic activity, X ± SD (%): 74 ± 8 %
NK cell; peptide 500 μg/kg/day i.p. 15 days (IFN-γ, IL-2 3×10^5 IU/kg/day), saline 63 ± 9
  NK cell cytotoxic activity, X ± SD (%): 77 ± 8 %
spleen; Table 28, peptide 5 μg/kg/day (so in the source) i.p. 15 days (IFN-γ, IL-2 3×10^5 IU/kg/day)
  weight of spleen (spleen index), X ± SD (%): 0.62 ± 0.07%
spleen; [1]
  weight of spleen (spleen index), X ± SD (%): 0.62 ± 0.07%
